This passage reports IC50 results from ChEMBL document CHEMBL5223100, “Homobivalent, Trivalent, and Covalent PROTACs: Emerging Strategies for Protein Degradation” (J Med Chem, 2022).

The subject of the test is MV4-11. Description: Antiproliferative activity against human MV4-11 cells.

In general, IC50 refers to the concentration that gives 50% inhibition. Low readings indicate greater potency in that assay, high ones weaker potency in that assay. For the compound `Cc1ncsc1-c1ccc(CNC(=O)[C@@H]2C[C@@H](O)CN2C(=O)[C@@H](NC(=O)COCCOCCOCCNC(=O)C[C@@H]2N=C(c3ccc(Cl)cc3)c3c(sc(C)c3C)-n3c(C)nnc32)C(C)(C)C)cc1`, half-maximal inhibition (IC50) required 11.3 nM.
